Measured values taken from ChEMBL document CHEMBL1156749 (Bioorg Med Chem Lett, 2009).
pKi: −log10 of the molar value.

Protein sequences, listed by entry. Tags and fused reporters are not part of them.
UniProt Q63380, whole entry: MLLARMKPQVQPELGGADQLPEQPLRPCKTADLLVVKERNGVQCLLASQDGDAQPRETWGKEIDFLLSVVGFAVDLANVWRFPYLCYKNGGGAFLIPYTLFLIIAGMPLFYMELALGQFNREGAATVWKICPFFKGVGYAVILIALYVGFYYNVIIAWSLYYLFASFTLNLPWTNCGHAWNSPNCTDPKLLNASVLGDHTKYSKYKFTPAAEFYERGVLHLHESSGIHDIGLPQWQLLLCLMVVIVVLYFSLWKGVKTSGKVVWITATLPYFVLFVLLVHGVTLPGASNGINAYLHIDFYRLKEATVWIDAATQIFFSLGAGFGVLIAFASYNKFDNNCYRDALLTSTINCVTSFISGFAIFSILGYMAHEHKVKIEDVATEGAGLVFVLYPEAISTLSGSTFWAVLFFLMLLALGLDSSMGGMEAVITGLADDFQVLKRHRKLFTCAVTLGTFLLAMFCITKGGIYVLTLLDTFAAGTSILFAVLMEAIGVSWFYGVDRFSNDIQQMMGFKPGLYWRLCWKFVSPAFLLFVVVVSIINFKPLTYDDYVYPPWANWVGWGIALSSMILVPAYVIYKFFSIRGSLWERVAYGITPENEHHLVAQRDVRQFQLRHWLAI

Target: Transporter (Rattus norvegicus, UniProt Q63380)
Experiment: Displacement of [3H]nisoxetine from NET in rat brain
Type: tissue-based
How it was run: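 Radioligand displacement from monoamine transporters in rat brain tissue: [3H]WIN 35,428 for DAT, [3H]citalopram for SERT, [3H]nisoxetine for NET. Test agents were used as oxalate salts, and Ki was derived from displacement. Values are mean ± SEM of three experiments, each run in triplicate.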

In the case of `COC(=O)[C@H]1[C@@H](OC(=O)c2ccccc2)C[C@@H]2CC[C@H]1N2C` [COCAINE], the pKi was 5.50.
